Values quoted from earlier work in paper PMC5021161 (Environmental and Molecular Mutagenesis, 2016).
Where two headings read alike, the source gives them in different places.

Tested on: TK6 cells
Details: 1% BF/PB S9, ref Buick et al., 2015, cited from earlier work

Q: Which results are given for `C[C@@H]1C[C@H]2[C@@H]3CCC4=CC(=O)C=C[C@]4(C)[C@@]3(F)[C@@H](O)C[C@]2(C)[C@@]1(O)C(=O)CO` [Dexamethasone]?
A: % Relative Survival (0.63 mM): 82.4%; % Relative Survival (1 mM): 71.3%
